The record followed here is patent US20090258877A1, “TRIAZOLOTRIAZINES AND TRIAZOLOPYRAZINES AND THEIR USE” (BAYER HEALTHCARE AG, priority 2007, published 2009).

Sequences of proteins named here, by UniProt entry; tags and fusion partners are left off.
UniProt P49841, whole entry: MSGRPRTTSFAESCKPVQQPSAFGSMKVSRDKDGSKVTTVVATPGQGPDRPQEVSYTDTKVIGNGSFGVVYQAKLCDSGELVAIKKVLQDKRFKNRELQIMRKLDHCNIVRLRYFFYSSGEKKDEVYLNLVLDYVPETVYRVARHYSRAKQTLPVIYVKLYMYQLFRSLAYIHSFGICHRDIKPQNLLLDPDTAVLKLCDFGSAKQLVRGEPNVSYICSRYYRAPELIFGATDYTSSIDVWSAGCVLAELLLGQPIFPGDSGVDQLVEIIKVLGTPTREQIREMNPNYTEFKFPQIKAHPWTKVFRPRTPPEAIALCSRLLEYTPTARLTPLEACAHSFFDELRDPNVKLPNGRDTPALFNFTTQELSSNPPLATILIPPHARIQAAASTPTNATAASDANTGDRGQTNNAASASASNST

The target of the assay is GSK3β (Homo sapiens, UniProt P49841). As to the kind of experiment: GSK3β biochemical in vitro assay (coupled pyruvate kinase/lactate dehydrogenase, NADH fluorescence). The following applies: 5 nM GSK3β, 50 μM ATP, 40 μM GSM substrate, 30° C., 2 hours. Here is the method:
The inhibitory activity of active substances is determined in a biochemical assay. The ingredients required for this purpose are mixed in a black 384-well microtitre plate with transparent base (from Greiner, catalogue number 781092). […]
The reaction is incubated at 30° C. for 2 hours and then the resulting fluorescence is measured in a Tecan Safire-XFLUOR4 instrument, version V4.50 (serial number 12901300283) with the specifications: measurement mode—fluorescence measured from below, excitation wavelength 340 nm, emission wavelength 465 nm, slit width excitation 5 nm, slit width emission 5 nm, gain mode 120, delay 0 μs, number of light flashes per measurement 3, and an integration time of 40 μs.
The activity of the active substances is calculated in relation to these 0% and 100%.

As a reminder, the IC50 is the point on the concentration scale where inhibition reaches its midpoint. Low readings indicate greater potency in that assay, high ones weaker potency in that assay.

The compound `Nc1nc(NC2CCCN(c3nc(-c4ccc(Cl)cc4Cl)nn4cnnc34)C2)ccc1[N+](=O)[O-]` (centres unmarked) came in with an IC50 of 4.3 nM. This lies in the single-digit nanomolar range. As to `Nc1nc(NC2CCCN(c3nc(-c4ccc(Cl)cc4Cl)nn4cnnc34)C2)ccc1C(=O)C(F)(F)F` (centres unmarked), the IC50 stood at 1.3 nM. Against the preceding compound, the IC50 is about 3.3-fold lower.
